For this experiment, the target named is mitochondrial Complex V (Bos taurus, UniProt P00829+P00847+P19483+P32876). Put plainly: Mito Check Complex Activity Assay Kit, complex V. It counts as biochemical. The note with it: mitochondrial electron transport chain. From the text:
Dulbecco’s Modified Eagle’s medium (DMEM), WST-8 colorimetric reagent, and KCN were purchased from Nacalai Tesque, Inc. (Kyoto, Japan). Fetal bovine serum (FBS) and Dialyzed FBS were purchased from Equitech-Bio Inc. (Kerrville, TX, USA) and Thermo Fisher Scientific Inc. (Waltham, MA, USA), respectively. Anti-Akt, Anti-phosphorylated Akt, anti-GRP78, and anti-β-actin antibodies were obtained from Cell Signaling Technology, Inc. (Danvers, MA, USA). Horseradish peroxidase (HRP)-linked anti-rabbit IgG antibody (GE Healthcare Life Sciences, Buckinghamshire, UK) was used as secondary antibody. Mito Check Complex Activity Assay Kit (Cayman Chemical, Ann Arbor, MI, USA) was used to evaluate the effect of compound 1 on the mitochondrial complex I–V. Oxygen consumption of cells was measured by Oxygen Consumption Rate (OCR) Assay Kit (Cayman Chemical, Ann Arbor, MI, USA). Rotenone, thenoyltrifluoroacetone (TTFA), carbonyl cyanide m-chlorophenylhydrazone (CCCP), antimycin A, and oligomycin A were obtained from Tokyo Chemical Industry Co., LTD. […]
Antimycin A is a known inhibitor of complex III in the mitochondrial electron transport chain [17]. […] We also evaluated the effect of compound 1 on the oxygen consumption of PANC-1 cells cultured in the Glucose Deficient Medium.

By UniProt entry, the sequences of proteins in these tests, tags left out. Where a name states a change or a piece, a line headed by the entry shows the natural chain unless it says otherwise.
UniProt P00829: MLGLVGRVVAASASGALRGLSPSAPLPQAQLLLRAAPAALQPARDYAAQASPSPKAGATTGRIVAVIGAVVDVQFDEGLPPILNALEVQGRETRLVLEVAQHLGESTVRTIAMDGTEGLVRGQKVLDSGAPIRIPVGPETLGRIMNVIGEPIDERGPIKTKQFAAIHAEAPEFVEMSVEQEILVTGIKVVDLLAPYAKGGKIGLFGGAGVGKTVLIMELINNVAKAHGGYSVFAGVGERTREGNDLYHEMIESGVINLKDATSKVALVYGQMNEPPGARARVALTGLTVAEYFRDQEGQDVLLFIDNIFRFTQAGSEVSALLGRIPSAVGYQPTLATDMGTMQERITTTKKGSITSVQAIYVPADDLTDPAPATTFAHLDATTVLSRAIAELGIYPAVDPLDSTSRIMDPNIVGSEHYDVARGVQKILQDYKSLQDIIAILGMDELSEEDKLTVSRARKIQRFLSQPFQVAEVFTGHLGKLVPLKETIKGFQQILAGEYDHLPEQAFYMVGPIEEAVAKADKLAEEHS
UniProt P00847: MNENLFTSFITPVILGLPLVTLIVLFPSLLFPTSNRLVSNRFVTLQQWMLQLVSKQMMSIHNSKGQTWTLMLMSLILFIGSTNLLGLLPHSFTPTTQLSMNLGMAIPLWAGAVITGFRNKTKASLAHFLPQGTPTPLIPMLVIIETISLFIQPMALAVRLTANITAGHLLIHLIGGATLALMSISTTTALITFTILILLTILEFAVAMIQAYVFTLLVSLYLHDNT
UniProt P19483: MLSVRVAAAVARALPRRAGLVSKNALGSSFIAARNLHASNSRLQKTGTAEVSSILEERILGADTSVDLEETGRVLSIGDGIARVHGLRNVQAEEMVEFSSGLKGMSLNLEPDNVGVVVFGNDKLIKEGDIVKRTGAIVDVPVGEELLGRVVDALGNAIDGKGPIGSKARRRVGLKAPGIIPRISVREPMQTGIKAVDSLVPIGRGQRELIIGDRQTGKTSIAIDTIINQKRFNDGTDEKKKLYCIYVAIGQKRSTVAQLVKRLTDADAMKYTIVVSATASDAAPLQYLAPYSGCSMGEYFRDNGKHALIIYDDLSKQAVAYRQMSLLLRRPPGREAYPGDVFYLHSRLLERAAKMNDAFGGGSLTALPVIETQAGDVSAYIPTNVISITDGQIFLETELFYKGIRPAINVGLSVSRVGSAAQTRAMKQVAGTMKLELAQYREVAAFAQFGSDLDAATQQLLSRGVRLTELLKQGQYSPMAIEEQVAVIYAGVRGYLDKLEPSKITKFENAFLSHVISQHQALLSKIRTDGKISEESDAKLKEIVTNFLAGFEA
UniProt P32876: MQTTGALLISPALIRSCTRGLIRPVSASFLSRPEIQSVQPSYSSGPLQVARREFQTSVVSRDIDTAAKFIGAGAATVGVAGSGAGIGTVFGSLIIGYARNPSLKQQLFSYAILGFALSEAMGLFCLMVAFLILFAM

As usually defined, the IC50 is the concentration that inhibits the measured activity by half. A lower IC50 goes with greater potency. oligomycin A [reference compound] gave an IC50 of 360 nM. This lies in the sub-micromolar range.

(Values after PMC7946679, “Selective cytotoxicity of epidithiodiketopiperazine DC1149B, produced by marine-derived Trichoderma lixii on the cancer cells adapted to glucose starvation” (Journal of Natural Medicines, 2019).)
